Results reported in ChEMBL document CHEMBL1221304, “Proline isosteres in a series of 2,4-disubstituted pyrrolo[1,2-f][1,2,4]triazine inhibitors of IGF-1R kinase and IR kinase” (Bioorg Med Chem Lett, 2010).

Chains of the proteins cited; added tags and fusions are not shown. Residues count along the entry.
UniProt P08069, 741-1367 limits assumed: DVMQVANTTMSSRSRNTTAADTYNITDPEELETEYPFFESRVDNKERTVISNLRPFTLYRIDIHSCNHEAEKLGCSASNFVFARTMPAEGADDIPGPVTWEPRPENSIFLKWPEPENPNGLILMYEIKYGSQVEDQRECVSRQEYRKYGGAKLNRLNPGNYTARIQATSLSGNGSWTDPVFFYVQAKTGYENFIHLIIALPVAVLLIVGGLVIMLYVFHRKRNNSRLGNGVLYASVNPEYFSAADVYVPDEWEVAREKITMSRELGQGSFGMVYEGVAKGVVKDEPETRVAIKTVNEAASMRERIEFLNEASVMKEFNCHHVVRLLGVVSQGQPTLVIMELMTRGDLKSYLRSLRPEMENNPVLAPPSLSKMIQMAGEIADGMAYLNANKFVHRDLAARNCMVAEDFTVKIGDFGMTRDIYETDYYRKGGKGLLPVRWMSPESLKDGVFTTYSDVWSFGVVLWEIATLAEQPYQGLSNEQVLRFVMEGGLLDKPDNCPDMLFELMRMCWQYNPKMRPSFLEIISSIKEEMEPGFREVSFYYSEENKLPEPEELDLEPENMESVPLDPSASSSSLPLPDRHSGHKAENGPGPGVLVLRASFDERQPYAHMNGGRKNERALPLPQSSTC
UniProt P08069, 31-736 limits assumed: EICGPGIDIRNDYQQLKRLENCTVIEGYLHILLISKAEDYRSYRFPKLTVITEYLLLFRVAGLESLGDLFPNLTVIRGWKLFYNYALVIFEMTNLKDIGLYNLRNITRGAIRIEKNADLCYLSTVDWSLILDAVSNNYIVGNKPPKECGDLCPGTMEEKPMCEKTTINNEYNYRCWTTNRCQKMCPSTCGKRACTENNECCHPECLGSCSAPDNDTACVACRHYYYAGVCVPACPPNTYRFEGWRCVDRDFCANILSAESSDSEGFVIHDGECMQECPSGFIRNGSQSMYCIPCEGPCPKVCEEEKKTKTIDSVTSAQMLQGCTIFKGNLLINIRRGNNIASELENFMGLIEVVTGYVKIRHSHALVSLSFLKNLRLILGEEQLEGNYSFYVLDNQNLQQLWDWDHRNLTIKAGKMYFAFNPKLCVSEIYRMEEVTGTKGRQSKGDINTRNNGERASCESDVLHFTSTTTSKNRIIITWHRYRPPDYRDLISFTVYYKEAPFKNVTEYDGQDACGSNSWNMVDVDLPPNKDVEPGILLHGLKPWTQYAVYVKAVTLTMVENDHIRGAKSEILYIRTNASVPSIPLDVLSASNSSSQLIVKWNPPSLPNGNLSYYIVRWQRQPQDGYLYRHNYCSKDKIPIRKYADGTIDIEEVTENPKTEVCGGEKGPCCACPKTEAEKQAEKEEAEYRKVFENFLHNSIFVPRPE

Molecular target: Insulin-like growth factor 1 receptor (Homo sapiens, UniProt P08069)
Assay: Inhibition of IGF1R

pIC50: 8.28
SMILES: O=C(NCc1nc(Nc2cc(C3CC3)n[nH]2)c2cccn2n1)c1ccc(F)nc1

pIC50: −log10 of the molar value.
